Key:
T116 cells = conditions: 72 hours drug exposure
hDT7 cells = conditions: read-out: IC50 hDT7; 72 hours drug exposure; human NQO1-expressing cells
F179 cells = assay: Antiproliferative assay in vector-only control V79 cells (F179), SRB; conditions: read-out: IC50 F179, 72 hours drug exposure

In the case of `O=[N+]([O-])c1ccc2c(c1)OP(=O)(N(CCCl)CCCl)OC2` (stereo not shown), the “Ratio of IC50 values (F179/T116)” value (T116 cells; 100 μM used where IC50 >100 μM) is reported as over 36, the IC50 (T116 cells; read-out: IC50 T116, E. coli nitroreductase-expressing cells) is reported as 2.7 µM and the IC50 (hDT7 cells) is reported as over 100 µM. For the same compound, the IC50 (F179 cells) was over 100 µM.
